Values quoted from earlier work as cited in US8741373B2, “Compositions containing non-polar compounds” (Virun, Inc., priority 2010, dated 2014).

Details: reported HLB values of exemplary surfactants and co-surfactants (Table 1A)

## Tocopherol polyethylene glycol succinate
  HLB: 12-18
